Biological target: AChE (Electrophorus electricus, UniProt O42275)
Format: biochemical
Settings: for IC50: read-out: IC50 AChE; for Ki: read-out: Ki AChE

Chains of the proteins cited; added tags and fusions are not shown. Residues count along the entry.
UniProt O42275, 24-633: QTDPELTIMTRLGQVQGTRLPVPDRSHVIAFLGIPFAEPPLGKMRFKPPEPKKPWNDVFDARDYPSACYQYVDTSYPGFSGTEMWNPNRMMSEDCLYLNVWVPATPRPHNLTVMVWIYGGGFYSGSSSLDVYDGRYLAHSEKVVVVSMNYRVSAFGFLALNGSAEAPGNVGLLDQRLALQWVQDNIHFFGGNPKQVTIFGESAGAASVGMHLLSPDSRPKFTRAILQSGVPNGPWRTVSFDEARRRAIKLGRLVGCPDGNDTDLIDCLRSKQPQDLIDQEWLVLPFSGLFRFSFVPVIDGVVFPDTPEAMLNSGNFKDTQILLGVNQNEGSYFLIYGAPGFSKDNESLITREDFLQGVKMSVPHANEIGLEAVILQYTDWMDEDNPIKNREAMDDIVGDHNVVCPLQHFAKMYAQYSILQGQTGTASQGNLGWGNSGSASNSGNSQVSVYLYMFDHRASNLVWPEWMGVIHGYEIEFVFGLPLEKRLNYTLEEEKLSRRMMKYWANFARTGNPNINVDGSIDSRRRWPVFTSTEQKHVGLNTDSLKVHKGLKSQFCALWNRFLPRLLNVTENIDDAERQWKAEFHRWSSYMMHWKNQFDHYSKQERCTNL

Row | Substance | IC50 | Ki
1 | dibromo[1,3-dibenzylbenzimidazol-2-ylidene]-2-aminopyridinepalladium(II) [Complex 4] | 43.3 nM | 38.6 ± 5 nM
2 | dibromo[1,3-dibenzylbenzimidazol-2-ylidene]-3-chloropyridinepalladium(II) [Complex 3] | 21.6 nM | 24.5 ± 2.9 nM
3 | dibromo[1,3-dibenzylbenzimidazol-2-ylidene]morpholinepalladium(II) [Complex 6] | 25.6 nM | 32.1 ± 3.2 nM
4 | dibromo[1,3-dibenzylbenzimidazol-2-ylidene]pyridinepalladium(II) [Complex 2] | 26.6 nM | 22.8 ± 3.2 nM

— article PMC9520214 (Heliyon, 2022)
